In patent publication US20180256673A1, “METHODS FOR TREATING FUNGAL INFECTIONS” (priority 2015, published 2018) one finds MIC and safety and tolerability data, which are given here for 1 compound.

Structures are written as SMILES.

In data set [1] the test system is C. parapsilosis CP02. Briefly: Broth microdilution MIC (CLSI), Examples 3 and 4. Conditions: Lodderomyces parapsilosis, CP02, 24 h, read-out: Broth MIC. In general terms: Dilution methods test growth across graded concentrations, often in twofold steps.
Data set [2] concerns C. parapsilosis CP02. Briefly: microbe, parasite or virus in culture. Type of data set: cell-based, Candida parapsilosis. To be noted: Lodderomyces parapsilosis, CP02, CP02 P20-1, selecting drug CAS.
Data set [3] in a line: Phase 1 dose-escalation trials, safety and tolerability. To be noted: single and multiple doses up to 400 mg once weekly for up to 3 weeks.

Take `CCCCCOc1ccc(-c2ccc(-c3ccc(C(=O)N[C@H]4C[C@@H](O)[C@@H](OCC[N+](C)(C)C)NC(=O)[C@@H]5[C@@H](O)[C@@H](C)CN5C(=O)[C@H]([C@@H](C)O)NC(=O)[C@H]([C@H](O)[C@@H](O)c5ccc(O)cc5)NC(=O)[C@@H]5C[C@@H](O)CN5C(=O)[C@H]([C@@H](C)O)NC4=O)cc3)cc2)cc1` [Compound 1]: the MIC with C. parapsilosis CP02 [1] and against C. parapsilosis CP02 [2] was 2 µg/mL throughout. In data set [3], the safety and tolerability entry was “safe and well tolerated”.
